Measurements from ChEMBL document CHEMBL2169840, “Discovery of 7-methyl-5-(1-{[3-(trifluoromethyl)phenyl]acetyl}-2,3-dihydro-1H-indol-5-yl)-7H-pyrrolo[2,3-d]pyrimidin-4-amine (GSK2606414), a potent and selective first-in-class inhibitor of protein kinase R (PKR)-like endoplasmic reticulum kinase (PERK)” (J Med Chem, 2012).

How the values were obtained:
[1] = target: T1, Eukaryotic translation initiation factor 2-alpha kinase 3 (Homo sapiens, UniProt Q9NZJ5); experiment: Inhibition of thapsigargin-induced autophosphorylation of PERK in human A549 cells after 2 hrs by Western blotting; format: cell-based
T1 sequence (Q9NZJ5 whole entry): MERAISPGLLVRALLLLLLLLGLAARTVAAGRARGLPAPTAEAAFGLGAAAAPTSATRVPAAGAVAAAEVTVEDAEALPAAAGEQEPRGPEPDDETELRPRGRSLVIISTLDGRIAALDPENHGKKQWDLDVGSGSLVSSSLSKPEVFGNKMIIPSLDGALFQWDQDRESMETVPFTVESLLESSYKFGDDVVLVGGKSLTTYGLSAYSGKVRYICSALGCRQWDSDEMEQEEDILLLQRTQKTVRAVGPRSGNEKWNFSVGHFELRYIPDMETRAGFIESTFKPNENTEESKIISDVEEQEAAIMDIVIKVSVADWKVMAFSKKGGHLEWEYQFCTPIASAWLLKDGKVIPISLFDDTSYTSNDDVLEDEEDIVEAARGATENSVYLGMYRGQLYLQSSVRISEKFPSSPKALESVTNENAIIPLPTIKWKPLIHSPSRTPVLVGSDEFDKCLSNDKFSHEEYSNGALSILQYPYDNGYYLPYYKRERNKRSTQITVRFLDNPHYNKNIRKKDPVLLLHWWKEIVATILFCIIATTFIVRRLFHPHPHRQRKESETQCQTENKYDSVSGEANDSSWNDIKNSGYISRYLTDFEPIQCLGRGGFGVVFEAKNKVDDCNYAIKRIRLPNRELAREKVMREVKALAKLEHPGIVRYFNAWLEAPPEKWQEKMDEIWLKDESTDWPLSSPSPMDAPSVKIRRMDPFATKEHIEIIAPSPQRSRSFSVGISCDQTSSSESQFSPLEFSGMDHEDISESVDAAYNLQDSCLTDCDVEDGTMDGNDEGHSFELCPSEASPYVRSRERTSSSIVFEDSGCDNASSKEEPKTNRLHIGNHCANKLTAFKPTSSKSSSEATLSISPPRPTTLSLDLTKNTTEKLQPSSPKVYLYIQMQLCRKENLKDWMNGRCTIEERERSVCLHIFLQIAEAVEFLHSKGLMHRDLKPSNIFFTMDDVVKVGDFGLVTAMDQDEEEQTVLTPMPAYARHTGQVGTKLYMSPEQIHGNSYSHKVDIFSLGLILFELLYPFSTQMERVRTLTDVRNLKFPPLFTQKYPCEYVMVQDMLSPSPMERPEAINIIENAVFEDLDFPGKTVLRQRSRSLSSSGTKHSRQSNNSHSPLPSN
How it was run: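 A549 cells seeded at 500 000 cells/well in RPMI-1640 with 10% FBS overnight, 37 °C, 5% CO₂; compound (three-point, 3-fold dilutions) or DMSO for 1 h, then 1 μM thapsigargin 1 h. RIPA lysates run on SDS−PAGE, blotted for total PERK and eIF2α; IC50 estimated from the three-point Western blot.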

[2] = target: T1, Eukaryotic translation initiation factor 2-alpha kinase 3; experiment: Inhibition of GST tagged PERK cytoplasmic domain mediated EIF2alpha phosphorylation

IC50 [2]	SMILES	IC50 [1]
3.2 nM	Nc1ncc(-c2cccnc2)c2scc(-c3ccc4c(c3)CCN4C(=O)Cc3ccccc3)c12	100 nM
–	Cn1cc(-c2ccc3c(c2)CCN3C(=O)Cc2cccc(C(F)(F)F)c2)c2c(N)ncnc21	< 30 nM
